{
  "sequences": {"note": "Amino acid sequences for entries named in this document (tags omitted). Residues count along the entry.", "UniProt P09619, 600-962 limits assumed": "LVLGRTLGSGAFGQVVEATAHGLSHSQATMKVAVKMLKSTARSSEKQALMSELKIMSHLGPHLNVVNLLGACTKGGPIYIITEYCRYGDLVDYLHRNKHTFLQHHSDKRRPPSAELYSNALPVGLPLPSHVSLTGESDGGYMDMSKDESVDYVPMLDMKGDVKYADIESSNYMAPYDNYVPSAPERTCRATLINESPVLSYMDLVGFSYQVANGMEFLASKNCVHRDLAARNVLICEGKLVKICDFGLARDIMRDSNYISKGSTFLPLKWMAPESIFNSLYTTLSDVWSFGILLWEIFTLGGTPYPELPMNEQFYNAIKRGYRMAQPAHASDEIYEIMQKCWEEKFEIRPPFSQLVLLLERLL", "UniProt P35968, 834-1162 limits assumed": "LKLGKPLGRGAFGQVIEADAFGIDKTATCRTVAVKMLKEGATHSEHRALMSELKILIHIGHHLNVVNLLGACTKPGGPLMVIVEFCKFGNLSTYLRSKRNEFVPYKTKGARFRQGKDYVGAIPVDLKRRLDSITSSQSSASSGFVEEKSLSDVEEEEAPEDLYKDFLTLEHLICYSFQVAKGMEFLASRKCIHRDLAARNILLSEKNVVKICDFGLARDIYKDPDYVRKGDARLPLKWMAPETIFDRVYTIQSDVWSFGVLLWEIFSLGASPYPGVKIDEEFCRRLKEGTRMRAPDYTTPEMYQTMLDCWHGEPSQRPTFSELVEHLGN", "UniProt P04629, 440-796 limits assumed": "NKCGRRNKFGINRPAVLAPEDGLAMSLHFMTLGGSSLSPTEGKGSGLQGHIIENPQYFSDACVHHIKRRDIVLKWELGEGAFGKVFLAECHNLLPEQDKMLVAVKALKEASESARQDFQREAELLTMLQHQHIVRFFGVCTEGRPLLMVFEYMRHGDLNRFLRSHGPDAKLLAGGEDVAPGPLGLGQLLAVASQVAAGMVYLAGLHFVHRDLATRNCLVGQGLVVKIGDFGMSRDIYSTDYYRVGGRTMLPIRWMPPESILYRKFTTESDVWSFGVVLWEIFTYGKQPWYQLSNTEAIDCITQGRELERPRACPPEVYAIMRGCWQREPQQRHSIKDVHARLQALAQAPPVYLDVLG"},
  "source": "patent US7291732B2",
  "about": "“Isomeric fused pyrrolocarbazoles and isoindolones” (Cephalon, Inc., priority 1999, dated 2007)",
  "key": {"[1]": {"biological_target": "baculovirus-expressed PDGFβ receptor kinase domain (Homo sapiens, UniProt P09619)", "assay": "PDGF receptor kinase activity inhibition, ELISA assay", "conditions": "1 μM compound; 20 μM ATP; value printed in parentheses"}, "[2]": {"biological_target": "baculovirus-expressed VEGF receptor (human flk-1, KDR, VEGFR2) kinase domain (Homo sapiens, UniProt P35968)", "assay": "VEGF receptor kinase activity inhibition, ELISA assay", "type": "biochemical", "conditions": "read-out: VEGFR kinase IC50; 40 μM ATP; value printed without parentheses", "description": "Isomeric fused pyrrolocarbazole and isoindolone compounds were examined for their inhibitory effects on the kinase activity of baculovirus-expressed VEGF receptor (human flk-1, KDR, VEGFR2) kinase domain using the procedure described for the trkA kinase ELISA assay described above. The kinase reaction mixture, consisting of 50 mM Hepes, pH 7.4, 40 μM ATP, 10 mM MnCl2, 0.1% BSA, 2% DMSO, and various concentrations of inhibitor, was transferred to PLC-γ/GST-coated plates. VEGFR kinase was added and the reaction was allowed to proceed for 15 min at 37° C. Detection of phosphorylated product was accomplished by addition of anti-phosphotyrosine antibody (UBI). A secondary enzyme-conjugated antibody was delivered to capture the antibody-phosphorylated PLC-γ/GST complex. The activity of the bound enzyme was measured via an amplified detection system (Gibco-BRL). Inhibition data were analyzed using the sigmoidal dose-response (variable slope) equation in GraphPad Prism Results are summarized in Table 6."}, "[3]": {"biological_target": "baculovirus-expressed human trkA cytoplasmic domain (Homo sapiens, UniProt P04629)", "assay": "trkA tyrosine kinase activity inhibition, ELISA-based assay", "conditions": "300 nM compound; 40 μM ATP; value printed in parentheses"}},
  "data": [
    {"smiles": "O=C1NCc2c3c(c4[nH]c5ccccc5c4c21)-c1ccccc1OC3", "values": [
      {"measurement": "PDGFRβ (% inhibition @ 1 μM)", "setting": "[1]", "value": "(1) %"},
      {"measurement": "IC50", "setting": "[2]", "value": 1480, "unit": "nM"},
      {"measurement": "trkA (% inhibition @ 300 nM)", "setting": "[3]", "value": "(15) %"}
    ]},
    {"smiles": "COc1ccc2c(c1)CCc1c3c(c4c([nH]c5ccccc54)c1-2)C(=O)NC3=O", "values": [
      {"measurement": "PDGFRβ (% inhibition @ 1 μM)", "setting": "[1]", "value": "(15) %"},
      {"measurement": "IC50", "setting": "[2]", "value": 431, "unit": "nM"},
      {"measurement": "trkA (% inhibition @ 300 nM)", "setting": "[3]", "value": "(7) %"}
    ]},
    {"smiles": "O=C1NCc2c3c(c4[nH]c5ccccc5c4c21)-c1ccccc1C3", "values": [
      {"measurement": "PDGFRβ (% inhibition @ 1 μM)", "setting": "[1]", "value": "(19) %"},
      {"measurement": "IC50", "setting": "[2]", "value": 166, "unit": "nM"},
      {"measurement": "trkA (% inhibition @ 300 nM)", "setting": "[3]", "value": "(38) %"}
    ]}
  ]
}
